Target: Adrenergic receptor alpha-1 (Rattus norvegicus, UniProt P15823+P23944+P43140)
Assay: Compound was evaluated for Adrenergic activity against Alpha-1 adrenergic receptor from rat aorta

Chains of the proteins cited; added tags and fusions are not shown. Lines headed by an entry give the natural chain unless they say otherwise; changes in a name come on top.
UniProt P15823: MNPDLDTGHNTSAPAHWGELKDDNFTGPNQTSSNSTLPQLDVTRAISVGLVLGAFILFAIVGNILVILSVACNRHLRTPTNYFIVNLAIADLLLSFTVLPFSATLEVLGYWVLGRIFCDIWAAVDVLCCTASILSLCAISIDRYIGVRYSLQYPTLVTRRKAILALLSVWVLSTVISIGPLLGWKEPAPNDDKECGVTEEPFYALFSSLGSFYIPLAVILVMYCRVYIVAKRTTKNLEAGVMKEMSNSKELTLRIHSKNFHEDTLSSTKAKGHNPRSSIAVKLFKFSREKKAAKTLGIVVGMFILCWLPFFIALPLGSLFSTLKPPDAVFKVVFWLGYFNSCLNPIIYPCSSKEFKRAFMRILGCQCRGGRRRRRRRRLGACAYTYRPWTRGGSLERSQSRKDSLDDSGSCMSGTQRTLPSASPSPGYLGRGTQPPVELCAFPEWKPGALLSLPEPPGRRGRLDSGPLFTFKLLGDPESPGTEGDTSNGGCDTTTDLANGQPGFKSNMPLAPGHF
UniProt P23944: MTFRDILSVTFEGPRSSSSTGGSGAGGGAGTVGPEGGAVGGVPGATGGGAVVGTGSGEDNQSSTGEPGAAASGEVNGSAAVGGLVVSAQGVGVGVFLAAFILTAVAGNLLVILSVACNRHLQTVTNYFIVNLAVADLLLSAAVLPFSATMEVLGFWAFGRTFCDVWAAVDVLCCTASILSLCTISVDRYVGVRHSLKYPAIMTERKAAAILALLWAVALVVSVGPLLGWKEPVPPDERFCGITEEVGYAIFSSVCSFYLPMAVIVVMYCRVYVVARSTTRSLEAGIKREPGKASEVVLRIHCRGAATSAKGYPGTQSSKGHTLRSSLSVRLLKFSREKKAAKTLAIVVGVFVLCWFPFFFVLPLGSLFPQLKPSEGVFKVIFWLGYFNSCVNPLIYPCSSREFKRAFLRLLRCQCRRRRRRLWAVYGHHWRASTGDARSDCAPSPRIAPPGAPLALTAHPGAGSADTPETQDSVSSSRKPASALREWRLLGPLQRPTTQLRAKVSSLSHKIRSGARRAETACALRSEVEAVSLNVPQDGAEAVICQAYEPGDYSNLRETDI
UniProt P43140: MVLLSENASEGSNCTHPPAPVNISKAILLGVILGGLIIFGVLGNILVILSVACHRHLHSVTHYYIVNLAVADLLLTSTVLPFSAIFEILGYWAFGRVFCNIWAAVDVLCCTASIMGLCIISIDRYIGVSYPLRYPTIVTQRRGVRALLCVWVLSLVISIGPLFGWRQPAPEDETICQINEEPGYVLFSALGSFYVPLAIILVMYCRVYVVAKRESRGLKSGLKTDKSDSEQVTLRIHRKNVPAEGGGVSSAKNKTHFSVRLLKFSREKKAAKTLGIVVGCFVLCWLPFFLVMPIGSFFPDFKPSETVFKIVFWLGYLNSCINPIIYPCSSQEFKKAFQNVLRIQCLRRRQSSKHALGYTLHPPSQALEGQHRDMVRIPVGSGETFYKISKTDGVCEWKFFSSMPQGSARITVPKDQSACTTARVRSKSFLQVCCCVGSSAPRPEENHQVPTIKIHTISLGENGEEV

Q: For Cl.c1ccc2c(CC3=NCCN3)cccc2c1 [NAPHAZOLINE HYDROCHLORIDE], which EC50 is on record?
A: The EC50 was 12 nM.

Reference: ChEMBL document CHEMBL1125381, “Synthesis and alpha-adrenergic activities of 2- and 4-substituted imidazoline and imidazole analogues” (J Med Chem, 1992)
